# From patent US8680146B2, “Organic compounds” (Novartis AG, priority 2008, dated 2014)
# Assay: Solubility study of FTY720 salts in various solvents
# Assay type: physicochemical
# Details: approx. values at 25° C.
# Description: The solubilities of various salts were assessed and are given in the table below (approx. values at 25° C., g/100 ml %): […]
substance,measurement,setting,value
Tartrate,Solubility in Acetone,Acetone,0.06 g/100 ml %
same,Solubility in Ethanol,Ethanol,0.07 g/100 ml %
same,Solubility in Ethylacetate,Ethylacetate,0.05 g/100 ml %
same,Solubility in Isopropanol,Isopropanol,0.09 g/100 ml %
same,Solubility in Water,Water,0.036 g/100 ml %
